# Antibody variant affinities, Ab-91 heavy chain, assay 2

From the AlphaSeq antibody data of Engelhart et al. 2022 (doi:10.1038/s41597-022-01779-4), copy in the FLAb collection.

The target is the same throughout: PDVDLGDISGINAS, from the HR2 region of SARS-CoV-2 spike.

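The parent was found by panning a naive human phage display library on the peptide. AAYL51 was designed without a model: most single CDR substitutions and a random sample of double and triple ones. Affinity was read by AlphaSeq, a pooled yeast mating assay with surface-displayed partners. Mating (16 h, 30 °C) was followed by selection of diploids and sequencing of their barcodes. Read counts were normalised to the haploid input and turned into Kd by a linear fit to BCL2-family pairs of known affinity, for each replicate. The assay was run in three technical replicates.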

Parent scFv Ab-91: VL joined to VH by the linker GGGGSGGGGSGGGGS. Changes lie in the heavy chain CDRs alone.
VL: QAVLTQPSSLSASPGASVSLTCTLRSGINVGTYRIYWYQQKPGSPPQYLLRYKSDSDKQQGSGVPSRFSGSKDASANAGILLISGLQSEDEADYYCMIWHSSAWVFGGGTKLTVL
VH: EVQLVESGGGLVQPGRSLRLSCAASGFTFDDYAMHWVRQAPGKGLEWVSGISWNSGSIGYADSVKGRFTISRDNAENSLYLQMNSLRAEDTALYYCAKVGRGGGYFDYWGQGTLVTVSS

The parent's heavy chain CDRs are GFTFDDYAMH, GISWNSGSIGYADSVK, VGRGGGYFDY; each variant's own CDRs replace them letter for letter. The read-out is the apparent dissociation constant on a log10 scale (nM): the lower, the stronger. A mean of the replicates is given; it leaves out those without a signal. A pair that was not seen in any replicate is written "not detected"; this usually means weak binding, but a binder can also be missed. Three control strains display no target. For library AAYL51, 21% of the pairings with them gave a signal, with a median of 4.54 and one signal in twenty below 3.26, so weak values seen in few replicates may be background.

| # | CDR-H1 | CDR-H2 | CDR-H3 | mean log10 Kd (nM) | detected |
|---|---|---|---|---|---|
| 1 | GFTFDDYAMI | GISPNSGSIGSADSVK | VGRGGGYFDY | 4.97 | 3/3 |
| 2 | GFTIDDYAMH | NISWNSGSIGFADSVK | VGRGGGYFDY | 4.22 | 1/3 |
| 3 | GFTFDDYAMH | GISWNSGSWGYAMSVK | VGRGGVYFDY | not detected | 0/3 |
| 4 | GFTFGDYAMH | GCSWNSGSIGYAISVK | VGRGGGYFDY | 4.38 | 1/3 |
| 5 | GFTFDDKAMH | GISFNSGSIGYADSTK | VGRGGGYFDY | not detected | 0/3 |
| 6 | GFTFDDYAMH | GISWNSGSIGYADFGK | VGRGGGKFDY | 3.62 | 1/3 |
| 7 | GFTFDDYAMH | MICWNSGSIGYADSVK | VGRGGGYHDY | not detected | 0/3 |
| 8 | GFTFGDYAMH | GISYNSGSIGYADSVK | VGRGGGYFDP | 2.43 | 3/3 |
| 9 | GFTFDDYAMH | GISWNSGYIGYADSVK | VRRGGGYVDY | 4.47 | 3/3 |
| 10 | GFTFDDYAMN | GISWNSGSIGYARSVK | VGRGGGYFDY | 4.21 | 1/3 |
| 11 | GFTFDDYAMH | GISWNSGSIGYADSGK | VGRGGGVYDY | 4.53 | 1/3 |
| 12 | GFTFDDYTMH | GISWNAGSIGYADSVK | VGRGGGYHDY | not detected | 0/3 |
| 13 | AFTFDDYAMH | GISWNSGSIGYADSVK | KGFGGGYFDY | 5.36 | 1/3 |
| 14 | GFTFFDYAMH | GISWNSGSICYADSVK | DGRGGGYFDY | not detected | 0/3 |
| 15 | GFTFDNYAMH | GISVNSGSIGYCDSVK | VGRGGGYFDY | 1.10 | 3/3 |
| 16 | GFTFDDYAMH | GIKWNSGSIGYADSVK | VGRGGKYFDY | not detected | 0/3 |
| 17 | GFEHDDYAMH | GISWNSGSIGYADSVK | VGRGGDYFDY | not detected | 0/3 |
| 18 | GFTFDDYAMH | GISWNSGSIGYALAVK | IGRGGGYFDY | 1.97 | 3/3 |
| 19 | GFTFDDYAMH | GISWTSGGIGYADSRK | VGRGGGYFDY | not detected | 0/3 |
| 20 | GFTFDQYAMH | GISWCSGSIGYADSVK | VGRGGGYFFY | 4.95 | 1/3 |
| 21 | TFTFDDYAMH | GISWRSGSIGYADSVK | VGRGGGYFDY | 3.86 | 1/3 |
| 22 | GFEFDDYAMH | GISWNSGSIDYADSVK | VGRGGGYFDY | not detected | 0/3 |
| 23 | GFTFDDYSMH | GISWNSGSIKYADSVK | VGRGGGYFDT | not detected | 0/3 |
| 24 | GFTFDDYAHH | VISWNSGSIGYADSVK | VYRGGGYFDY | 5.85 | 1/3 |
| 25 | CFTFDDYAMH | QISWNCGSIGYADSVK | VGRGGGYFDY | 4.91 | 1/3 |
| 26 | GFTFDDYAMI | GISWNSGSIGYADSVK | VGTGGGMFDY | 4.06 | 1/3 |
| 27 | GFTFDDMAMH | GISWNSGSIGYADSPK | VGRGGGYFDY | 4.97 | 1/3 |
| 28 | GFTFDDYAMH | GICWTSGSIGYADSVK | LGRGGGYFDY | 4.98 | 3/3 |
| 29 | GFDFDDYAMH | GISWNSGSIGYANSVK | VGRGGGYFDY | 2.10 | 3/3 |
| 30 | GFTFDCQAMH | GKSWNSGSIGYADSVK | VGRGGGYFDY | 4.62 | 2/3 |
| 31 | GFTFRDYAMH | GISPNSGSIGYADSVK | VGRGGGYFDM | 0.65 | 3/3 |
| 32 | GFTKDDYAMH | GVSWNSGSIGYADSVK | VGRFGGYFDY | 4.12 | 3/3 |
| 33 | GFTFDDYAMH | GISWNSLSHGYAPSVK | VGRGGGYFDY | not detected | 0/3 |
| 34 | GFTFDDYAMH | GISWNHGSIGYADSVK | GGRGGGYFDY | not detected | 0/3 |
| 35 | GFDFDHYAMW | GISWNSGSIGYADSVK | VGRGGGYFDY | not detected | 0/3 |
| 36 | EFTFYDTAMH | GISWNSGSIGYADSVK | VGRGGGYFDY | 3.25 | 2/3 |
| 37 | GMTFDDYAMH | GISWNSQSIGYADSVK | YGRGGGYFDY | 4.09 | 1/3 |
| 38 | GFTFDDYSMH | GISWNSGSIGYADSVK | VGRGGGWFDY | 2.17 | 3/3 |
| 39 | GFTFDDYAMH | GISWNSGATGYADSVK | VGQGGGYFDY | 0.74 | 3/3 |
| 40 | GPTFDDYAMF | GISWNSGSIGYADSVK | VGRGSGYFDY | 3.97 | 1/3 |
| 41 | GFTFDDYAMH | GTSWNSGSIGYADSVK | VGRGQWYFDY | 3.65 | 1/3 |
| 42 | GFTFDDYAMH | GISWNSGSIGWADSVK | VQRGGGWFDY | 3.60 | 2/3 |
| 43 | GFTFDDYAMH | WISWNSGSIGYAASVM | VGRGGGYFDY | not detected | 0/3 |
| 44 | GFTFDDYAMH | GISWNSGCIGYADSVK | VGPGGQYFDY | 4.49 | 1/3 |
| 45 | GFTFDDYAMH | GISWNSGSHGYADSVK | VGRGGGYFDK | 1.06 | 3/3 |
| 46 | GFTNDDYAMH | GDSWNSGSIGYADSVK | VGRGGGYFDY | 3.41 | 1/3 |
| 47 | VFTFDDYAMH | GISWNSGSIGYADSVK | VGRGGLYFRY | 5.37 | 1/3 |
| 48 | GFTFDRYAMH | GISWNSGSIGYASSVK | VGREGGYFDY | not detected | 0/3 |
| 49 | GFTFDDYAMH | GISWNSGSIGYADSVA | VGGGGGYFDY | 2.04 | 3/3 |
| 50 | GFTDDDYAMH | GISWNSGSIGYADQVK | VGRGGSYFDY | not detected | 0/3 |
| 51 | GFTFDDYAMH | GISWNSGTIFYADSVY | VGRGGGYFDY | not detected | 0/3 |
| 52 | GFTFDAYRMH | GISWNSGSIGYADSVK | VGRGGHYFDY | 4.66 | 1/3 |
| 53 | GSTFDDYAMH | GISWNSGSIGYADSVK | VGRRKGYFDY | not detected | 0/3 |
| 54 | GFTFDDYAMH | GISWNSGSDKYADSVK | VGRGGGYFDY | not detected | 0/3 |
| 55 | DFTYDDYAMH | GISWNSCSIGYADSVK | VGRGGGYFDY | not detected | 0/3 |
| 56 | GFTFDDYAMH | GASWNSGSIGYADTVK | VWRGGGYFDY | not detected | 0/3 |
| 57 | GNTFDDYAYH | GISWNSGSGGYADSVK | VGRGGGYFDY | 4.32 | 1/3 |
| 58 | GFTFDDYCMH | GISWNSGSIGYADSVK | VARGGGVFDY | not detected | 0/3 |
| 59 | GFTFDDYAMH | LISWNSGSIGYAKSDK | VGRGGGYFDY | 4.10 | 2/3 |
| 60 | GFTFDDYAMW | GISWNPGSIGYADSVK | VGFGGGYFDY | 5.79 | 2/3 |
| 61 | GFKFDDYAMH | LISWNSGSIGYTDSVK | VGRGGGYFDY | not detected | 0/3 |
| 62 | GFTFDDYAMY | WDSWNSGSIGYADSVK | VGRGGGYFDY | 3.50 | 1/3 |
| 63 | GFTFDDYAMH | GIRWNSGSIGYADSVK | VHRGGGYFDY | not detected | 0/3 |
| 64 | GFTFDDYAMH | GISWNNGSIGYADCVK | IGRGGGYFDY | not detected | 0/3 |
| 65 | GFTFDDYAMH | GISWNCGSIGYADSLK | VGRGGGYFDY | 3.22 | 1/3 |
| 66 | GFTFDDYAMH | GISWNSGHIGKADSVK | VGRGGGYFHY | 4.66 | 2/3 |
| 67 | GFTFDEYAMH | GISWNSGSIGYADSVK | WGRGGGEFDY | 4.91 | 3/3 |
| 68 | GFTHDDYAMH | GASWNSGSIGYADSVK | VGRGGGYFDY | 4.06 | 1/3 |
| 69 | GFTFDDYALH | GISWNSGSIGYADSVK | VGRGGVYFDY | not detected | 0/3 |
| 70 | GFTFDDYAMG | GTSWNSGSIGYYDSVK | VGRGGGYFDY | 5.15 | 2/3 |
| 71 | GFTFDQYAMH | GISWNSGSIGPADSVK | VGRRGGYFDY | 5.45 | 3/3 |

For reference, 4 entries of the list once more:

| CDR-H1 | CDR-H2 | CDR-H3 | mean log10 Kd (nM) | detected |
|---|---|---|---|---|
| GFDFDDYAMH | GISWNSGSIGYANSVK | VGRGGGYFDY | 2.10 | 3/3 |
| GFTFDDYSMH | GISWNSGSIGYADSVK | VGRGGGWFDY | 2.17 | 3/3 |
| GFTFDEYAMH | GISWNSGSIGYADSVK | WGRGGGEFDY | 4.91 | 3/3 |
| GFTFDQYAMH | GISWNSGSIGPADSVK | VGRRGGYFDY | 5.45 | 3/3 |